The results in this text go back to ChEMBL document CHEMBL4251654, “Structure-based design of human immuno- and constitutive proteasomes inhibitors” (Eur J Med Chem, 2018).

This test addresses T1, Proteasome subunit beta type-10 (Homo sapiens) (UniProt P40306).
T1 sequence (whole entry): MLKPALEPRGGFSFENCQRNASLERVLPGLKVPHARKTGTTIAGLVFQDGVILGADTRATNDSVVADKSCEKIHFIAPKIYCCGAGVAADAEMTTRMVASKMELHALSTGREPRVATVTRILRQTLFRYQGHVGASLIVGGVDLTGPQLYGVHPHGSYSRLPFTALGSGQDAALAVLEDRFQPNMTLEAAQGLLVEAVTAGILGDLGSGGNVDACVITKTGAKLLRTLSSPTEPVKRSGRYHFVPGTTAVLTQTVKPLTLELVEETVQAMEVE
The test can be described thus: Activation of human 20S immunoproteasome beta-2 at 50 uM using BocLRR-AMC as substrate incubated for 15 mins measured for 45 mins by fluorescence assay relative to control. An outline of the steps:
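Purified human 20S proteasome (cCP or iCP), 0.3 nM, preincubated 15 min with compound (0.001-50 μM) in pH 8 buffer of 20 mM Tris-HCl, 10% glycerol, 0.005% Triton X-100, 2% DMSO. Then Boc-LRR-AMC at 50 μM was added. AMC fluorescence (ex 360/em 460 nm) was followed 45 min at 37 °C. Activity is relative to an untreated control.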

Each structure is given as a SMILES string.

Take `CC(C)(C)OC(=O)N[C@@H](Cc1ccc(OCc2ccccc2)cc1)C(=O)N[C@@H](CC(N)=O)C(=O)N[C@@H](C[C@]1(O)C(=O)Nc2ccccc21)C(=O)NCc1ccccc1`: the fold change (FC) came out at 1.3.
